For test [1], the system named is intracellular L. monocytogenes in Caco-2 cells. Briefly: Determination of intracellular viable bacteria (CFU assay). The class given is cell-based, Listeria monocytogenes. The settings on record: phloretin 58.34 μM during infection; Caco-2, MOI 100; 1, 3, 5 h.
Test [2] concerns L. monocytogenes invasion into Caco-2 cells. Put plainly: L. monocytogenes invasion into Caco-2 cells (CFU assay, immunostaining). The class given is cell-based, Listeria monocytogenes.

This is an account of results in publication PMC5244253, “Phloretin Attenuates Listeria monocytogenes Virulence Both In vitro and In vivo by Simultaneously Targeting Listeriolysin O and Sortase A” (Frontiers in Cellular and Infection Microbiology, 2017).

On to `O=C(CCc1ccc(O)cc1)c1c(O)cc(O)cc1O` [phloretin], for which the “multiplication of intracellular bacteria” value in test [1] is recorded as “significantly reduced the multiplication of intracellular bacteria”. Also, the “ability of EGDe bacteria to invade cells (CFU assay)” value was “significantly diminished ability to invade cells” in test [2] (EGDe pre-treated with phloretin 58.34 μM, Caco-2, MOI 100, 1 h post-infection) and “this inhibition was not observed” in test [2] (no pre-treatment, phloretin 58.34 μM only during infection, Caco-2, 1 h post-infection). Further, the “entry of EGDe bacteria into host cells (immunostaining)” value in test [2] (pre-treatment with phloretin 58.34 μM, Caco-2, 1 h post-infection) is “significantly reduced the entry”.
